Measured values taken from PubChem BioAssay AID1298 (SRMLSC, 2008).
This is a selection; strong and weak results do not stand in their true shares. Activity calls are given as the source filed them.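 How the source made its calls: active means RAM network inhibition above 8.4% in each of two replicates, 3 SD over the compound average; inconclusive means above 8.4% inhibition in only one replicate; inactive means 8.4% inhibition or less in each replicate.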

Assay: RAM signaling pathway blockade in yeast – S. cerevisiae, Pdr1DBD-CYC8 efflux-inhibited sensitized strain, primary screen (AID 1298);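 further: 0% = DMSO untreated cells without growth and 100% = 10 µM 1-NA-PP1 full growth; higher means more yeast growth rescued from 5-FOA killing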
Conditions: S. cerevisiae cbk1-as DSE1-URA3 strain, 5-FOA growth OD615, 2 d; at 50 µM; hits give high values

SMILES	RAM network inhibition
Fc1ccccc1NC1CCN(Cc2ccccc2)CC1	inactive: 2.57%
